Measurements published in patent US20250186563A1, “UNIT DOSE FORMULATION OF ANTIDOTES FOR FACTOR XA INHIBITORS AND METHODS OF USING THE SAME” (Alexion Pharmaceuticals, Inc., priority 2009, published 2025).
Entries after “also recorded” stand apart in the source; their conditions may differ.

Legend:
[1] = system: blood loss due to enoxaparin; format: in vivo, Sprague-Dawley rats; conditions: enoxaparin 4.5 mg/kg IV bolus
Procedure: (§1) The effect of r-Antidote on reversal of blood loss due to enoxaparin anticoagulation was tested in Sprague-Dawley rats. Specifically, rat tail transection blood loss model for restoration of hemostasis was employed. The enoxaparin was dosed by IV bolus (4.5 mg/kg). The r-Antidote was administered as two doses: 1) a 2 milligram bolus and then infused at a rate of 2 mg/hour for a total of 15 minutes; and 2) a 4 milligram bolus and then infused at a rate of 4 mg/hour for a total of 15 minutes. Blood loss reversal was also tested using the vehicle. Immediately after the bolus injection of the r-Antidote was complete and the infusion started, the tip of the rat's tail was transected with a scalpel blade and placed into a vial containing physiological saline at 37° C. The tail was allowed to bleed for 15 minutes. The resulting blood volume was determined by lysis of red blood cells, measuring the hemoglobin concentration spectrophotometrically and estimating the blood volume by comparison against a standard curve. Decreased blood loss correlated with both r-Antidote plasma concentrations (r^2=0.80) and a reduction of anti-fXa units (r^2=0.89). The results are provided in FIG. 38 (AD refers to the r-Antidote).
The anti-fXa units and rfXa antidote concentration refer to the levels obtained at the 15 minute time point—just prior to tail transection.

[2] = system: PT of pooled human plasma; experiment: Prothrombin time (PT) human plasma clotting assay; format: biochemical; conditions: for correction of anticoagulation (PT): 1.9 μM recombinant antidote
[3] = rhesus monkey, in vivo, iv, 10 mg
Procedure: Two animals were each dosed with 10 mg antidote by intravenous dosing over a ten minute period. Citrate anticoagulated plasma sample analysis for determination of T1/2 were carried out in a manner similar to that in the rat study (Example 23) except for the pretreatment of plasma samples with barium citrate absorption to remove endogenous monkey fX.
The mixture was kept on ice for 60 min and clarified by centrifugation with a micro-centrifuge at 13000 rpm for 15 min. The supernatant (30 uL) was mixed with 20 uL TBS/EDTA buffer (20 mM Tris/150 mM NaCl/50 mM EDTA, pH 7.4). […] Antidote concentration was then determined by the same ELISA procedure as for rat plasma (Example 23).

[4] = system: rivaroxaban-induced anticoagulation; experiment: Reversal of rivaroxaban-induced anticoagulation by IV r-Antidote in rats; format: in vivo
Procedure: Blood sampling catheter patency was maintained by slow infusion of normal saline between samples. […] Whole blood INR and PT measurements were determined on a Hemochron Jr using the citrated PT cartridges. Whole blood INR and PT are used for monitoring patients under warfarin anticoagulation and are reported as validated methods for evaluating extent of anticoagulation. […] The anticoagulation status of dosed rats was quantitated by a point of care clotting assay (Whole Blood INR).
Blood sampling catheter patency was maintained by slow infusion of normal saline between samples. […] Quantitation was performed using a calibration standard curve generated from weighted least square regression analysis.
Rats were anesthetized and catheterized as described in example 18. […] Whole blood INR/PT was determined as described in Example 18. r-Antidote concentrations were determined by ELISA as described in Example 23. […] Quantitation was performed using a calibration standard curve generated from weighted least square regression analysis.

[5] = system: blood loss due to fondaparinux; experiment: Rat tail transection blood loss model, fondaparinux; format: in vivo, Sprague-Dawley rats; conditions: fondaparinux 25 mg/kg IV bolus; r-Antidote 6 mg bolus + 6 mg/hr infusion
Procedure: as §1
The r-Antidote was provided as a 6 mg bolus and then another 6 g/hr for 15 min as an infusion.

[6] = system: enoxaparin-induced anticoagulation; experiment: Enoxaparin-induced anticoagulation and its reversal in rats; format: in vivo; conditions: enoxaparin 3.0 mg/kg, r-Antidote 5 mg bolus + 5 mg/h or protamine sulfate 0.9 mg
Procedure: Rats were anesthetized by intraperitoneal dosing of ketamine cocktail, rapidly catheterized for (jugular vein) administration of enoxaparin and a second catheter (femoral vein) was inserted for serial blood sampling. Blood sampling catheter patency was maintained by slow infusion of normal saline between samples. Rats were administered enoxaparin (Aventis Pharma, 100 mg/ml) diluted in normal saline at 6, 3, or 1 mg/kg as an IV bolus injection (1 mL). […] INR measurements were determined using Hemochron Jr point of care testing device.
In order to test the ability of r-Antidote to reverse enoxaparin induced anticoagulation and to compare the results to the extent of protamine reversal, we tested the agents in the following regimen: Rats were administered enoxaparin diluted into normal saline at 3.0 mg/kg or vehicle (normal saline) as an intravenous bolus injection (1 mL) at t=0. At 10 minutes post enoxaparin injection, vehicle, antidote (5 mg) or protamine sulfate (0.9 mg, Sigma) was administered intravenously as a 5 minute bolus injection. This was followed by a maintenance infusion for the remainder of the study (additional 45 minutes, 5 mg/h for r-Antidote and normal saline for protamine). […] Plasma aPTT measurements were determined using a MLA Electra 800 Automatic coagulation timer. […]

[7] = 1 μM apixaban + 380 nM rAntidote
[8] = 1 μM apixaban + 760 nM rAntidote
[9] = 1 μM apixaban + 1.52 μM rAntidote
[10] = […] apixaban + 1.52 μM rAntidote
[11] = […] apixaban + 1.90 μM rAntidote
[12] = rats, r-Antidote 4 mg IV bolus + 4 mg/hr infusion

B1: r-Antidote: fXa derivative lacking the 6-39 amino acid residues of SEQ ID NO. 3, expressed in CHO cells, after removal of the linker (SEQ ID NO. 13) (protein)
chain: ANSFLFWNKYKDGDQCETSPCQNQGKCKDGLGEYTCTCLEGFEGKNCELFTRKLCSLDNGDCDQFCHEEQNSVVCSCARGYTLADNGKACIPTGPYPCGKQTLERIVGGQECKDGECPWQALLINEENEGFCGGTILSEFYILTAAHCLYQAKRFKVRVGDRNTEQEEGGEAVHEVEVVIKHNRFTKETYDFDIAVLRLKTPITFRMNVAPACLPERDWAESTLMTQKTGIVSGFGRTHEKGRQSTRLKMLEVPYVDRNSCKLSSSFIITQNMFCAGYDTKQEDACQGDAGGPHVTRFKDTYFVTGIVSWGEGCARKGKYGIYTKVTAFLKWIDRSMKTRGLPKAKSHAPEVITSSPLK
With B1 the “blood loss due to enoxaparin, reduced to” value ([1]; r-Antidote 2 mg bolus + 2 mg/hr infusion) was 42%, the “reversal of blood loss due to enoxaparin” value ([1]; r-Antidote 4 mg bolus + 4 mg/hr infusion) was “completely reversed” and the “Fold Change” value [2, 7] was 1.09. For the same molecule, the “PT” value [2, 7] was 15.3 s, the “Fold Change” value [2, 8] was 1.06 and the “PT” value [2, 8] was 14.9 s. For the same molecule, the “Fold Change” value [2, 9] was 1.01, the “PT” value [2, 9] was 14.2 s and the “Fold Change” value ([2]; 1 μM apixaban + […] rAntidote) was 1.01. For the same molecule, the “PT” value ([2]; 1 μM apixaban + […] rAntidote) was 14.2 s, the “reversal of anticoagulant effect of rivaroxaban (PT)” value ([2]; 1 μM rivaroxaban + r-Antidote) was “dose-dependently and completely reversed” and the “PT” value ([2]; 1.52 μM rAntidote alone) was 14 s. The “PT” value ([2]; 1.90 μM rAntidote alone) was 14.2 s, the “correction of anticoagulation (PT)” value ([2]; 1 μM rivaroxaban) was 100% and the “correction of anticoagulation (PT)” value ([2]; […] apixaban) was 97%. The PT ([2]; 1.9 M r-Antidote alone) was 14.2 s, the “Fold Change” value [2, 10] was 1.04 and the “PT” value [2, 10] was 14.6 s. For the same molecule, the “Fold Change” value [2, 11] was 1.01, the “PT” value [2, 11] was 14.3 s and the “Plasma half life of clearance (T1/2)” value [3] was “approximately 30 minutes”. For the same molecule, the “free (unbound) fraction of rivaroxaban upon r-antidote dosing” value ([4]; anticoagulated rats, r-Antidote 1.0 or 3.4 mg IV bolus) was “dose responsive reduction”, the “free (unbound) concentration of rivaroxaban upon r-Antidote dosing” value [4, 12] was “greatly reduced” and the “reversal of rivaroxaban-induced anticoagulation (whole blood INR and PT ratio)” value [4, 12] was “sustained reversal”. The “reversal of the effect of rivaroxaban (whole blood INR)” value ([4]; rats, rivaroxaban 0.25 mg/kg/hr IV 30 min, r-Antidote 1.0 or 3.4 mg IV bolus) was “dose responsive reversal”, the “reversal of blood loss due to fondaparinux” value [5] was “completely corrected; also recorded: completely reversed” and the “reversal of enoxaparin-induced anticoagulation (plasma aPTT)” value [6] was “sustained reversal”.
